Experimental findings from patent US6575945B2, “Method and apparatus for overcoming infection in a tissue pocket surrounding an implanted device” (Biolink Corporation, priority 2000, dated 2003) are described below.

The conditions of this data set: 160 mg per 1 ml saline injected into capsule.

Take gentamicin: for the setting “blood levels at 0, 1, 4, 12, 24, 48, 72 hours”, the “uptake in the blood from tissue capsule” value is recorded as “slow uptake in the blood”. Also, the bloodstream level reached entry (steady state over a few days) was “very low (non-pharmacologic) bloodstream dose”.
